{
  "source": "patent US20040241222A1",
  "about": "“Lipid-polymer-conjugates compositions” (priority 2001, published 2004)",
  "key": {"[1]": {"assay": "Particle size and polydispersity of liposomes by dynamic light scattering", "format": "physicochemical", "details": "prednisolone phosphate-containing DPPC/cholesterol liposomes, light scattering (Malvern Zeta-sizer)", "protocol": "The lipid loss during preparation of the liposomes was 25%, determined by comparing the final radioactivity of the preparation with the activity before the extrusion procedure. The suspension of liposomes was stored in a nitrogen atmosphere at 4° C.\nLiposomes were prepared using the film method, as described in example 23. Instead of egg phosphatidylcholine dipalmitoyl phosphatidylcholine was used. 5 mM HEPES buffer was added to the dry lipid film and shaken during 5 minutes in the presence of glass beads in order to enable complete hydration of the lipid film. The liposomes were sized by extrusion 12 times through 2 stacked PC membranes having pore sizes of […]. The resulting liposome dispersions were dialysed (MWCO 10,000) and average particle sizes were determined using dynamic light scattering technique. See table 1 for the properties of the liposomal preparations."}, "[2]": {"assay": "Encapsulation efficiency of prednisolone phosphate in liposomes (HPLC)", "format": "physicochemical", "details": "prednisolone phosphate-containing DPPC/cholesterol liposomes"}},
  "data": [
    {"substance": "Poly(2-hydroxyethyl)-L-asparagine DODASuc [Ex. 14]", "values": [
      {"measurement": "Mean particle size", "setting": "[1]", "value": "about 85 nm"},
      {"measurement": "Encapsulation efficiency of the prednisolone phosphate", "setting": "[2]", "value": 2.6, "unit": "%"}
    ]}
  ]
}
